Screening data: PubChem, several laboratories
HDAC3 inhib = blocks human histone deacetylase 3 | recombinant HDAC3, fluorogenic peptide/trypsin coupled, fluorescence | inhibition, % at 8.3 µM | 320,000 compounds, 0.15% hits | AID 2718; in the data active = inhibition above about 26%, passing the limit was not always enough
MC4R antagonist = antagonists of human melanocortin 4 receptor (MC4R) | P32245 | 360,000 compounds, 0.48% hits | MC4R-expressing cells, MTII-stimulated cAMP, LANCE TR-FRET | AID 540295 | inhibition, % at 6.5 µM;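 active = inhibition above its plate's cutoff, the mean of tested wells on that plate plus 3 SD, cut at about 29% in these data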;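 also: 0% = Melanotan II alone and 100% = Melanotan II plus saturating MCL0020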
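Material: U2OS-MC4R stable cell line | Reagent: Melanotan II challenge after compound preincubation | Doses: One concentration, 6.5 µM nominal | Incubation: 30-min compound preincubation, 1-h Melanotan II challenge, 1-h detection, room temperature | Signal: TR-FRET cAMP assay | Replicates: One well per compound, no replicates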
NALP1 inh = NALP1 inhibition; AID 2071; inhibition, % at 10 µM; S. cerevisiae NALP1/ASC/caspase-1 growth, X-gal OD620, 72 h; 280,000 compounds, 0.61% hits; in the data active = inhibition mostly above about 24%, no sharp cut-off; inactive = mostly below about 32%
MC4R barr agon = agonists of human melanocortin 4 receptor (MC4R) beta-arrestin; 360,000 compounds, 0.98% hits; P32245; activation, % at 8.9 µM; U2OS MC4R beta-arrestin complementation, luminescence; percent of melanotan II response, DMSO zero;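 active = activation above a per-plate cutoff, the mean activation of sample wells on that plate plus 3 SD, cut at about 8% in these data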
UUG fidelity = modulators of start codon recognition fidelity in yeast; AID 602363; activity score, % at 18.7 µM; S. cerevisiae UUG-firefly luciferase reporter, luminescence/redox ratio; actives 0.13% (n = 350,000);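 active = replicate mean at a twofold rise or more, about +100% in these data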;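 note: firefly luciferase made from a UUG start codon reports start codon fidelity; reporter light over untreated wells divided by growth signal over untreated wells; some hits fall short of that in this replicate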
ALR H2O2 inh = human ALR oxidase inhibition via reduced H2O2. P55789. purified ALR, DTT oxidation, H2O2 HRP-luminol luminescence. inhibition, % (no concentration beside the values). 3.8% of 290,000 active. AID 485317;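 active means mean and each replicate at 75% or more; inconclusive means only one of the two met; inactive means neither met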;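 further: stock transfer was 7.5 nL into about 7.5 µL; 0% = neutral wells and 100% = wells with inactivated enzyme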
* marks the source's active call; other numbers are inactive results; / = no result given. The list is not random: actives were taken first. Their share in the collection is about 4.2%.

Keys – A = HDAC3 inhib; B = MC4R antagonist; C = NALP1 inh; D = MC4R barr agon; E = UUG fidelity; F = ALR H2O2 inh
CC(=O)Nc1c(O)nc(SCC(=O)Nc2ccc(C(C)=O)cc2)[nH]c1=O
  A: 1	B: -10	C: 16	D: -1	E: -20	F: 98*
CC(=O)Nc1c(O)nc(SCC(=O)Nc2cccc(C)c2)[nH]c1=O
  A: 4	B: -4	C: 10	D: 2	E: -11	F: 98*
O=C(CSc1nc2ccccc2c(=O)[nH]1)Nc1ccc(C(=O)O)cc1
  A: 2	B: 2	C: -15	D: 6	E: -8	F: /
CCCc1cc(=O)[nH]c(SCC(=O)Nc2sc3c(c2C#N)CCC(C)C3)n1 (stereo unspecified)
  A: 12	B: -7	C: -2	D: 4	E: 1	F: 89*
CC(=O)Nc1c(O)nc(SCC(=O)Nc2sc3c(c2C#N)CCCCCC3)[nH]c1=O
  A: 8	B: -3	C: 3	D: -2	E: 3	F: 98*
N#Cc1c(NC(=O)CSc2ncn[nH]2)sc2c1CCCC2
  A: 7	B: -1	C: 10	D: 0	E: -31	F: /
COc1ccc(NC(=O)Nc2cccc3c2O[C@@H](CN(C)C(=O)Nc2cccc4ccccc24)[C@H](C)CN([C@@H](C)CO)C3=O)cc1
  A: /	B: /	C: /	D: /	E: -2	F: /
O=C(C[C@H]1CC[C@H]2[C@@H](COC[C@H](O)CN2Cc2nccs2)O1)NCc1ccc(Cl)cc1
  A: /	B: /	C: /	D: /	E: -12	F: /
CC(C)NC(=O)N[C@H]1C=C[C@H](CC(=O)N2CCCCC2)O[C@@H]1CO
  A: /	B: /	C: /	D: /	E: -23	F: /
CO[C@H]1CN(C)C(=O)c2ccc(NC(=O)C3CCC3)cc2OC[C@@H](C)N(Cc2ccncc2)C[C@H]1C
  A: /	B: /	C: /	D: /	E: 11	F: /
CC(=O)Nc1c(O)nc(SCC(=O)Nc2nnc(CC(C)C)s2)[nH]c1=O
  A: 2	B: 6	C: -72	D: -2	E: -19	F: 85*
CSc1ncc(-c2ccc(Cl)cc2)[nH]1
  A: -4	B: 0	C: /	D: 0	E: -23	F: 98*
COc1ccc(C(C[N+](=O)[O-])c2c(C)[nH]n(-c3ccccc3)c2=O)cc1 (stereo unspecified)
  A: -1	B: -4	C: 45*	D: 3	E: -8	F: -42
CC(=O)Nc1ccc(S(=O)(=O)NNc2ccc([N+](=O)[O-])cc2)cc1
  A: 1	B: 2	C: -4	D: 0	E: -13	F: 98*
CC(=O)Nc1ccc(S(=O)(=O)NNC(=O)c2ccc([N+](=O)[O-])cc2)cc1
  A: 3	B: -2	C: 1	D: -1	E: -11	F: 72
O=C(NNc1ccccc1)C(=O)NNS(=O)(=O)c1ccc([N+](=O)[O-])cc1
  A: 0	B: 0	C: 2	D: -2	E: /	F: 98*
Cc1ccc(NNS(=O)(=O)c2ccc(C)cc2)cc1
  A: 19	B: -1	C: 8	D: 3	E: -24	F: 98*
COCC(=O)Nc1ccc2c(c1)C(=O)N(C)C[C@H](OC)[C@H](C)CN(C(=O)NC(C)C)[C@@H](C)CO2
  A: /	B: /	C: /	D: /	E: -3	F: /
O=C(COc1ccc(Cl)cc1Cl)NC(=S)N1CCCc2ccccc21
  A: 6	B: 1	C: 4	D: 1	E: /	F: 98*
Cc1cc(C)nc(NNC2=CC(=[N+]3CCCCC3)CC(C)(C)C2)n1
  A: 5	B: -7	C: -3	D: 0	E: /	F: 99*
C[C@@H]1CN([C@@H](C)CO)C(=O)c2cc(NC(=O)NC3CCCCC3)ccc2O[C@H]1CN(C)CC1CCCCC1
  A: /	B: /	C: /	D: /	E: -5	F: /
CN(C)CCCNC(=O)C[C@H]1CC[C@@H]2[C@H](COC[C@H](O)CN2CC2CCCC2)O1
  A: /	B: /	C: /	D: /	E: 2	F: /
COC(=O)CCSCC(=O)Nc1ccc(C)c(S(=O)(=O)N2CCCCC2)c1
  A: 4	B: 12	C: 0	D: 3	E: -6	F: 99*
COc1ccc(/C=C/C(=O)NCc2cn(C)nc2C)cc1COc1ccc(Br)cc1
  A: -5	B: 8	C: 4	D: 9.1*	E: /	F: 2
Cc1nn(C)cc1CNC(=O)/C=C/c1cnn(C)c1
  A: 0	B: -2	C: 12	D: -1	E: /	F: /
O=[N+]([O-])C(=C1Nc2ccccc2N1)/C(Cl)=C(/Cl)Br
  A: 1	B: 1	C: 17	D: -1	E: -13	F: 89*
COc1ccccc1/C=C/C(=O)OCc1nc2ccccc2c(=O)[nH]1
  A: 6	B: 2	C: 16*	D: -2	E: /	F: -4
COc1ccc(/C=C/C(=O)OCc2nc3ccccc3c(=O)[nH]2)c(OC)c1
  A: -2	B: -1	C: -2	D: 0	E: -25	F: 0
COc1cc(C(=O)CCN2CCC(c3ccccc3)C2)cc(OC)c1OC (stereo unspecified)
  A: 0	B: -4	C: 54	D: -4	E: -1	F: 98*
O=C(CCN1CCC(c2ccccc2)C1)c1ccc2c(c1)OCCO2 (stereo unspecified)
  A: /	B: 20	C: 4	D: -1	E: -17	F: /

Arranged by value in MC4R barr agon (lowest first): some entries from above.
Compound | MC4R barr agon
COc1ccccc1/C=C/C(=O)OCc1nc2ccccc2c(=O)[nH]1 | -2
O=C(CCN1CCC(c2ccccc2)C1)c1ccc2c(c1)OCCO2 (stereo unspecified) | -1
COC(=O)CCSCC(=O)Nc1ccc(C)c(S(=O)(=O)N2CCCCC2)c1 | 3
